Source: patent US8093052B2, “Serum-free culture medium for the production of recombinant gonadotropins” (Ares Trading S.A., priority 2005, dated 2012)

System: CHO cell line expressing both subunits of human FSH
Assay: Total viable cells ratio (TVC ratio) during antioxidant test period
Assay type: cell-based, Chinese Hamster
Conditions: end of test/start of test, >=1.0 = no toxic effect
Protocol: All experiments were performed with a CHO cell line expressing both subunits of human FSH. The produced protein is a dimeric gonadotropin further referred to as rFSH. The alpha subunit corresponds to SwissProt Accession No. P01215 and the beta subunit corresponds to SwissProt Accession No. P01225.
At least 2.4.10^9 viable rFSH-producing cells were transferred to a 15 L bioreactor with an effective working volume of 11 L (newMBR, Zürich) comprising microcarriers. Immediately after seeding followed a batch phase that lasted for two or three days. The bioreactor was then continuously fed with SFM to a dilution rate of 1 day^−1 and to a perfusion rate at 11 L·day)^−1.
The total viable cell concentration is defined as the sum of the concentration of cells attached on microcarriers and the concentration of viable cells in suspension.
The Total Viable Cells Ratio (TVC Ratio) for was calculated as follows: [total viable cell concentration, end of test]/[total viable cell concentration, start of test] wherein the start of test is defined as the day at which a new antioxidant is introduced in the culture, and the end of test is defined as the day before the next antioxidant is introduced in the culture.
The total viable cell concentration, the GCR and the rFSH titers were measured daily.

`N[C@@H](CS)C(=O)O` [L-cysteine, reference compound] was tested, and the “TVC Ratio” value (Run 1, 280 mg/L, WD10 to WD20) was 8.6, the “TVC Ratio” value (Run 2, 280 mg/L, WD0 to WD20) was 6.3 and the “TVC Ratio” value (Run 2, 350 mg/L, WD40 to WD50) was 1.0.
